Values of other authors as cited in patent US8969413B2.

Biological target: T1, mGAT4 (Mus musculus, UniProt P31650)
T1 sequence (P31650 1-627): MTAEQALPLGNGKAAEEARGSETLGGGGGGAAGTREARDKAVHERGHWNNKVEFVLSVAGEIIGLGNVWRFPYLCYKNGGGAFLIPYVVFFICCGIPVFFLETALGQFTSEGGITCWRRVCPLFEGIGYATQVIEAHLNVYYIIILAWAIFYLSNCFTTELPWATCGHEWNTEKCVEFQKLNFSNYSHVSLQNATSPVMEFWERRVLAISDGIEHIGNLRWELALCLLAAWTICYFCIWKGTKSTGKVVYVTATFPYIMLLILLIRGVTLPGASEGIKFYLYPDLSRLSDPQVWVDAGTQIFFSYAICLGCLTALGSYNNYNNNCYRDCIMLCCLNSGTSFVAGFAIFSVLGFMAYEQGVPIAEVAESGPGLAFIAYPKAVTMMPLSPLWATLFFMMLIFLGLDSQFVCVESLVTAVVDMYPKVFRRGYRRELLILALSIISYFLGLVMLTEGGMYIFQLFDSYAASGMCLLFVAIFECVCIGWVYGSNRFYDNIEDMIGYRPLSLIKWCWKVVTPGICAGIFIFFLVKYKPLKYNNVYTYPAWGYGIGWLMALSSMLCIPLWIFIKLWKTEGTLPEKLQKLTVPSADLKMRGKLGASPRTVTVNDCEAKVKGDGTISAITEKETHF
Parameters: expressed in transfected cells
Conditions: data from Bolvig et al. 1999; read-out: mGAT4 uptake IC50; cited from earlier work

SMILES: NCCCC(=O)O [GABA, γ-aminobutyric acid]
- IC50: 17 µM
